The record followed here is PubChem BioAssay (NCI).

The test system of this assay is MDA-MB-468 breast. Nature of the assay: NCI anticancer screen, dose series, 48 h.

SMILES strings stand for the structures.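 Grown in 96-well plates, cells were treated for 48 hours with each compound at five concentrations. Insufficient inhibition: endpoint recorded as highest concentration tested. The concentration for 50% growth inhibition is given as GI50. TGI marks complete inhibition of growth.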

Turning to `O=c1ccc(Oc2ccc([N+](=O)[O-])cc2[N+](=O)[O-])nn1-c1ccc([N+](=O)[O-])cc1[N+](=O)[O-]`, the GI50 is 1860 nM and the TGI worked out at 3.67 µM.
